{
  "source": "paper PMC9496151",
  "about": "“Expression and Function of ABC Transporters in Human Alveolar Epithelial Cells” (Biomolecules, 2022)",
  "key": {"ABCG2/BCRP [1]": {"test_system": "ABCG2/BCRP", "experiment": "Bidirectional transport of Bodipy FL Prazosin (BCRP activity) in hAELVi", "settings": "3 µM Bodipy™ FL Prazosin", "method": "(§1) The activity of ABC transporters was determined by measuring the apical-to-basolateral (AB) and basolateral-to-apical (BA) fluxes of specific substrates. To this aim, cell monolayers were washed twice in HBSS and equilibrated for 30 min in the same solution (pH 7.4, 37 °C). […] After 0, 30, 60, and 120 min, aliquots of the solution were collected from the opposite chamber (receiver chamber) and replaced with the same volume of HBSS. The fluxes were determined by reading fluorescence with an EnSpire® Multimode Plate Reader (Perkin Elmer), or radioactivity with MicroBeta^2 liquid scintillation spectrometer. The apparent permeability coefficient (Papp) was calculated from the data obtained.\n(§2) Efflux ratio (ER) was calculated as the ratio between Papp measured for BA and AB fluxes, while uptake ratio (UR) was the ratio between Papp measured for AB and BA fluxes."}, "ABCG2/BCRP [2]": {"test_system": "ABCG2/BCRP", "experiment": "Bidirectional transport of Bodipy FL Prazosin (BCRP activity) in EpiAlveolar", "settings": "3 µM Bodipy™ FL Prazosin", "method": "as §1, §2"}},
  "data": [
    {"substance": "Bodipy™ FL Prazosin", "values": [
      {"measurement": "Papp, AB versus BA fluxes", "setting": "ABCG2/BCRP [1]", "value": "almost identical"},
      {"measurement": "Papp, AB versus BA fluxes", "setting": "ABCG2/BCRP [2]", "value": "almost identical"}
    ]}
  ]
}
